Results: ChEMBL document CHEMBL1152169, “Synthesis and structure-activity relationships of selective norepinephrine reuptake inhibitors (sNRI) with improved pharmaceutical characteristics” (Bioorg Med Chem Lett, 2008)

assay: Metabolic stability assessed as intrinsic clearance in rat liver microsome; conditions: liver microsomes

Structure (SMILES) | CLint scaled [mL/min/kg]
CNC[C@]1(O)Cc2ccccc2[C@@H]1Oc1ccccc1OC | ≤ 3
CNC[C@]1(O)Cc2ccccc2[C@@H]1Oc1cccc(C)c1C | 43
CCc1ccccc1O[C@H]1c2ccccc2C[C@@]1(O)CNC | ≤ 3
CNC[C@]1(O)Cc2ccccc2[C@@H]1Oc1ccc(F)cc1C | ≤ 3
CNC[C@]1(O)Cc2ccccc2[C@@H]1Oc1ccccc1C | 10
CNC[C@]1(O)Cc2ccccc2[C@@H]1Oc1ccc(C)cc1C | 32
CNC[C@]1(O)Cc2ccccc2[C@@H]1Oc1cccc(O)c1C | 6
